Laboratory results from patent US20170267738A1 (published 2017).

Target: T1, NYESO1 (peptide NYESO1-001) peptide on HLA-A*02:01 (human)
T1 peptide: SLLMWITQV
Experiment: multimer staining

- binding result: no recognition
B1: R20P1H7 (TCR, V domains shown)
Valpha: EDQVTQSPEALRLQEGESSSLNCSYTVSGLRGLFWYRQDPGKGPEFLFTLYSAGEEKEKERLKATLTKKESFLHITAPKPEDSATYLCAVQGENSGYSTLTFGKGTMLLVSP
Vbeta: EAQVTQNPRYLITVTGKKLTVTCSQNMNHEYMSWYRQDPGLGLRQIYYSMNVEVTDKGDVPEGYKVSRKEKRNFPLILESPSPNQTSLYFCASSLGPGLAAYNEQFFGPGTRLTVL

- binding result: no recognition
B2: R10P2G12 (TCR, V domains shown)
Valpha: AQKVTQAQTEISVVEKEDVTLDCVYETRDTTYYLFWYKQPPSGELVFLIRRNSFDEQNEISGRYSWNFQKSTSSFNFTITASQVVDSAVYFCALSEGNSGNTPLVFGKGTRLSVIA
Vbeta: DVKVTQSSRYLVKRTGEKVFLECVQDMDHENMFWYRQDPGLGLRLIYFSYDVKMKEKGDIPEGYSVSREKKERFSLILESASTNQTSMYLCASSLSSGSHQETQYFGPGTRLLVL

One block for each binder: values may come before it.
